In PubChem BioAssay AID504634 (The Scripps Research Institute Molecular Screening Center, 2011):
The entries are a selection whose mix differs from that of the whole data set. The source made the active and inactive calls. Rule as the data show it: active = inhibition mostly above about 23% (no sharp cut-off); inactive = mostly below about 18%.

Chains of the proteins cited; added tags and fusions are not shown.
UniProt P47898, whole entry, looked up: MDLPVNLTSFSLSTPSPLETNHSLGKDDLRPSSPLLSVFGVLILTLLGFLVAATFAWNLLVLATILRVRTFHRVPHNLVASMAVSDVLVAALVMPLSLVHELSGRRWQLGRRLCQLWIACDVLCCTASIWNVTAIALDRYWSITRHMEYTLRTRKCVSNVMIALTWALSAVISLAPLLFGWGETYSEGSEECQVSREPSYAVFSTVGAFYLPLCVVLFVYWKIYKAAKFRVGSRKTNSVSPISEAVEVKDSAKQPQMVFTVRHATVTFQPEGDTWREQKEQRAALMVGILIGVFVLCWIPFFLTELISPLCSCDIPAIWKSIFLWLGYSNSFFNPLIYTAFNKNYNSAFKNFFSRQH

Biological target: 5-hydroxytryptamine receptor 5A (Homo sapiens) (UniProt P47898)
Experiment: HTR5A inverse agonists in luminescence cell assay, primary screen, counter-screen for OPRM1-OPRD1 heterodimer inverse agonist project, full-deck HTS (AID 504634);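 also: 0% = cells with DMSO and 100% = no-cell wells with DMSO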
Conditions: HTR5A cell line, inverse agonism, at 9.3 µM, active compounds read high

Row | SMILES | inhibition
1 | CCN(CC)CCn1c(=N)n(CC(=O)c2ccc(C)cc2)c2ccccc21 | inactive: -38.5%
2 | O=P(Nc1ccccn1)(c1ccc(Br)cc1)c1ccc(Br)cc1 | inactive: -12.8%
3 | O=C(Cn1cnc2ccccc21)Nc1ccc2c(c1)OCCCO2 | inactive: -20.9%
4 | COC(=O)[C@H](CC(C)C)NC(=O)Cn1cnc2c(NCc3ccccc3)ncnc21 | inactive: -0.5%
5 | Cc1nnc(NC(=O)Cn2cnc3c2c(=O)n(C)c(=O)n3C)s1 | inactive: 36.2%
6 | COc1ccc(N)c([N+](=O)[O-])c1[N+](=O)[O-] | inactive: -5.66%
7 | CC(C)(C)NC(=O)Cn1c(Cl)nc2ccccc21 | inactive: 4.69%
8 | Cc1ccc(/C=N/NC(=O)Cn2cnc3c2c(=O)n(C)c(=O)n3C)s1 | inactive: 13.7%
9 | c1ccc2c(c1)nc(NCc1ccc3c(c1)OCO3)n2CCN1CCOCC1 | inactive: -8.89%
10 | CSc1ccccc1NC(=O)Cn1c(-c2cscn2)nc2ccccc21 | inactive: -3.03%
11 | O=C(Cn1cnc2ccccc21)N/N=C/c1ccccn1 | inactive: 7.45%
12 | CC(O)c1nc2ccccc2n1CC(=O)Nc1ccc2c(c1)OCCO2 (stereo not drawn) | inactive: 14.1%
13 | CSCC[C@H](NC(=O)N1CCn2c1nc1ccccc12)C(=O)NCC1CCCO1 (stereo partly drawn) | inactive: -1.3%
14 | O=C(Nc1cccc(F)c1)N1CCC(n2c(=O)[nH]c3ccccc32)CC1 | inactive: -8.4%
15 | O=C(Cn1cnc2c(OCc3ccccc3)ncnc21)NCc1nc2ccccc2[nH]1 | inactive: 3.54%
16 | O=C(OC1CN2CCC1CC2)c1cccc(Cl)c1 (stereo not drawn) | inactive: -11%
17 | CCn1c(N)[n+](CC(=O)Nc2ccc(SC(F)F)cc2)c2ccccc21 | inactive: 5.31%
18 | COc1ccc(N2C(=O)CC(N3CCC(n4c(=O)[nH]c5ccccc54)CC3)C2=O)cc1 (stereo not drawn) | inactive: -2.59%
19 | CC(C)C[C@H](NC(=O)N1CCn2c1nc1ccccc12)C(=O)N[C@@H](Cc1ccccc1)C(=O)O | inactive: -17%
20 | O=C(Cn1c(CC(=O)N2CCCC2)nc2ccccc21)NCc1ccccc1 | inactive: 8.81%

Row | SMILES | inhibition
21 | COCCOC(=O)C1=C(C)N=C2SCCC(=O)N2C1/C=C/c1ccccc1 (stereo not drawn) | inactive: 9.78%
22 | Cc1ccc2c(c1)C1CN(C)CCC1N2C(=O)/C=C/c1ccc2c(c1)OCO2 (stereo not drawn) | inactive: -9.44%
23 | COc1cc(C(=O)OCCn2c(=O)c3c(ncn3CCN(C)C)n(C)c2=O)cc(OC)c1OC | inactive: -8.66%
24 | CSCC[C@H](NC(=O)N1CCn2c1nc1ccccc12)C(=O)NCc1ccc(F)cc1 | inactive: 20.4%
25 | Nc1ccc([As](=O)(O)c2ccc([N+](=O)[O-])cc2)cc1 | inactive: 19%
26 | N=c1n(CCO)c2ccccc2n1CCN1CCCCC1 | inactive: 7.27%
27 | COc1ccc(C(=O)N2CCn3c2nc2ccccc23)cc1 | inactive: -25.2%
28 | C(Cc1nn[nH]n1)Cc1nn[nH]n1 | inactive: 18%
29 | O=C(Nc1ccccc1Cl)N1CCn2c(nc3ccccc32)C1 | inactive: -7.03%
30 | COc1ccc(CCNC(=O)Cn2cnc3c2c(=O)n(C)c(=O)n3C)cc1OC | inactive: 14.1%
31 | Cn1c(=O)[nH]c(=O)c2c1nc(CN(Cc1ccccc1)Cc1ccccc1)n2CCN1CCOCC1 | inactive: -8.09%
32 | CN(C)C(=O)Cn1c(SCC(=O)NC2CCCCC2)nc2ccccc21 | inactive: -2.94%
33 | CC(=O)Nc1ccc2c(c1)nc1n2CCN(C(C)c2ccccc2)C1 (stereo not drawn) | inactive: -8.28%
34 | Cc1nc2ccc(S(=O)(=O)NC(C(=O)N3CCn4c3nc3ccccc34)C(C)C)cc2s1 (stereo not drawn) | inactive: -1.38%
35 | CCN(CC)CCn1c(NC(=O)c2ccccc2O)nc2ccccc21 | inactive: 30.9%
36 | CC1CCCC(NC(=O)Cn2c(Cl)nc3c2c(=O)n(C)c(=O)n3C)C1C (stereo not drawn) | inactive: -17.1%
37 | O=[As](O)(c1ccccc1)c1ccc(O)cc1 | inactive: -9.55%
38 | O=C(Cn1cnc2c(NCc3ccccc3)ncnc21)NCc1ccccc1 | inactive: 7.03%
39 | CCOc1ccc(NC(=O)N2CCC(n3c(=O)[nH]c4ccccc43)CC2)cc1 | inactive: -24.7%
40 | CS(=O)(=O)Cc1nc2ccccc2n1CC(=O)Nc1cccc(S(=O)(=O)N2CCCC2)c1 | inactive: -7.19%

Row | SMILES | inhibition
41 | O=C(Cn1c(=O)n(CC2CS2)c2ccccc21)N1CCCCC1 (stereo not drawn) | inactive: -0.39%
42 | Cc1nc2cc(C(F)(F)F)ccc2n1C1CCN(Cc2nnnn2Cc2cccs2)CC1 | inactive: 5.48%
43 | COCC(C)NC(=O)Cn1c(SCc2ccccc2)nc2ccccc21 (stereo not drawn) | inactive: -13.2%
44 | N=c1n(CCN2CCOCC2)c2ccccc2n1CC(=O)c1ccc(Cl)c(Cl)c1 | inactive: 3.65%
45 | CCn1nccc1C(=O)Nc1nc2ccccc2n1CCN1CCCCC1 | inactive: -38.5%
46 | O=C(Cn1cnc2c(OCc3ccccc3)ncnc21)NCc1ccc2[nH]ccc2c1 | inactive: -23.3%
47 | O=[N+]([O-])c1ncn(CCn2cnc([N+](=O)[O-])n2)n1 | inactive: -23.5%
48 | CC(=O)NC(SC(=S)N(C)C)C(Cl)(Cl)Cl (stereo not drawn) | inactive: -4.47%
49 | CCOC(=O)C1=C(Cn2cnc3ccccc32)NC(=O)NC1c1cc(C)ccc1C (stereo not drawn) | inactive: 17.3%
50 | O=[N+]([O-])c1ccc(O)c(/C=N/Nc2ccc([N+](=O)[O-])cc2[N+](=O)[O-])c1 | inactive: -9.58%
51 | CCN(CC)C(=O)CSc1nc2ccccc2n1CC(=O)N1CCN(c2ccccc2OC)CC1 | inactive: -3.31%
52 | c1nnnn1CCn1cnnn1 | inactive: 6.44%
53 | CCC(=O)Nc1cccc(C(=O)/C=C/c2ccccc2)c1 | inactive: -34.5%
54 | CCOc1ccc(CCNC(=O)Cn2c(-c3nonc3N)nc3ccccc32)cc1OCC | inactive: -5.75%
55 | CSc1nc2ccccc2n1CC(=O)Nc1cc(C(F)(F)F)ccc1N1CCOCC1 | inactive: 9.72%
56 | CCN(CC)CCn1c(NCc2nc3ccccc3n2Cc2ccccc2)nc2ccccc21 | inactive: -13.5%
57 | O=C(CCCCCNC(=O)N1CCn2c1nc1ccccc12)NCc1ccccc1 | inactive: -8.06%
58 | CCNC(=O)Cn1cnc2c1c(=O)n(C)c(=O)n2C | inactive: 11.5%
